Experimental data as given in PubChem BioAssay AID435030 (The Scripps Research Institute Molecular Screening Center, 2010).
The list shows a part of the results, in another mix than the full data. Activity calls are given as the source filed them. Cut-off read from the data, not from the text of the source: active = inhibition above about 12%; inactive = the rest.

Test: reduced growth of AddAB-expressing E. coli cells – absorbance, AddAB inhibitor project, primary screen (AID 435030);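 note: 0% = vehicle wells of infected cells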
Conditions: E. coli expressing H. pylori AddAB, at 11.9 µM, stronger effect = higher value
With `CCC(=O)N(c1ccccc1)C1(COC)CCN(CCc2cccs2)CC1` the inhibition was inactive: -0.85%. With `CCC(=O)N(c1ccccc1)C1(COC)CCN(CCn2nnn(CC)c2=O)CC1` the inhibition was inactive: 0.85%.
